miR-21 reporter: miR-21 reporter, rising signal; HeLa miR-21 FLuc reporter, luciferase, 48 h; Potency, µM (highest dose often 38.3 µM), for the others: top-dose reporter change, positive = more light; 340,000 tested, under 10 active; AID 2288; active = well fitted rising curve with a large enough effect; inconclusive = small, poorly fitted or top-dose-only effect; inactive = no such curve, though single readings can be large or run the other way;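 further: % of control where 0% means no effect; miR-21 action dims this reporter so a rising signal means less miR-21 action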
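HeLa cells endogenously expressing miR-21, stably carrying CMV-driven firefly luciferase with a downstream miR-21 binding site, 2000 cells/well. Titrations up to approximately 40 uM, 48 hours; luciferase luminescence read.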
TDP1 cell CPT: growth inhibition of DT40 Tdp1-/-;hTDP1 cells with camptothecin (screen for TDP1 inhibitors); chicken DT40 Tdp1-/-;hTDP1 cells + 20 nM CPT, ATP luminescence, 48 h; hit rate 12% among 420,000; Potency, µM (top dose mostly 46.2 µM), without a hit: at the highest dose activity change, negative = growth inhibition, most hits filed as inhibitors; AID 686979; further: potency means the concentration at half of the fitted maximal effect; on the % scale 0 is the no-effect control and ±100 the full control effect; nearly all actives have a fitted effect of over 55% in size
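Chicken DT40 Tdp1-/- cells complemented with human TDP1, 400 cells/well, exposed to compounds plus 20 nM camptothecin for at least 48 h at 37 C; viability read as ATP content by CellTiter-Glo luminescence.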
TDP1 inh: TDP1 (human) enzyme inhibition; Q9NUW8; recombinant TDP1, AlphaScreen DNA substrate cleavage; Potency, µM (highest dose often 130 µM), for inactives: top-dose activity change, negative = inhibition, hits mostly inhibitors; hit rate 0.28% among 350,000; AID 485290; further: potency means the concentration at half of the fitted maximal effect; on the % scale 0 is the no-effect control and ±100 the full control effect; nearly all actives have a fitted effect of over 40% in size
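Here, a 5' biotin and 3' phosphotyrosine-FITC DNA oligonucleotide reports Tdp1 activity: intact substrate bridges AlphaScreen beads, while cleavage leaves a 3' phosphate and drops signal. All incubations at room temperature.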
uPA generation: cell surface uPA generation inhibition | AID 540303 | Potency, µM (highest dose often 38.3 µM), without a hit: at the highest dose activity change, negative = inhibition, actives largely listed as inhibitors | hit rate 0.31% among 330,000 | cell surface uPA generation assay, qHTS; active means well fitted inhibition curve with a large enough effect; inconclusive means small, poorly fitted or top-dose-only effect; inactive means no such curve, though single readings can be large or run the other way; tested in mouse RAW 264.7 cells; further: potency means the concentration at half of the fitted maximal effect; on the % scale 0 is the no-effect control and ±100 the full control effect; nearly all actives have a fitted effect of over 55% in size
TDP1 cell noCPT: qHTS for Inhibitors of human tyrosyl-DNA phosphodiesterase 1 (TDP1): qHTS in cells in absence of CPT; hit rate 15% among 420,000; AID 686978, 2013; Potency, µM (doses to about 46.2 µM), for the others: at the top dose activity change, negative = growth inhibition, usual class: inhibitors; DT40 Tdp1-/- hTDP1 cells, no CPT, ATP luminescence, 48 h; further: potency means the concentration at half of the fitted maximal effect; on the % scale 0 is the no-effect control and ±100 the full control effect; nearly all actives have a fitted effect of over 55% in size
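Compound effects on proliferation are scored in DT40 Tdp1-/-;hTDP1 cells in the absence of CPT. ATP levels (CellTiter-Glo luminescence) are recorded after a ≥48 hr, 37 °C incubation.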
Starred values were filed as active, the others as inactive; [ ] = another dose, or the depositor's remark. Rows were chosen to be rich in hits. Some 16% of all compounds tested hit in one or more screens of this group. Unless noted, the call rests on the fitted dose curve; in most records, active means well fitted curve in the direction sought with a large enough effect; inconclusive means small, poorly fitted or top-dose-only effect, or another doubt; inactive means no such curve, though single readings can be large; an effect the other way counts as inactive or inconclusive.

What do the screens show for `CCCS(=O)(=O)NCc1c(C)ncc2c1CCN(C(=O)c1c(F)ccc(F)c1F)C2`?
TDP1 cell CPT: 4%[9.04 µM]; TDP1 cell noCPT: 0%

What do the screens show for `CC1CCCCN1C(=O)/C=C/c1ccccc1[N+](=O)[O-]` (configuration not stated)?
miR-21 reporter: -23%; TDP1 cell CPT: -7%; TDP1 inh: -2%; uPA generation: 4%; TDP1 cell noCPT: inconclusive

Results for CC1(Cc2ccccc2OC(F)(F)F)C(=O)Nc2ccc(-c3ccsc3)cc21 (configuration not stated) ?
TDP1 cell CPT: inconclusive; TDP1 cell noCPT: 18µM*

How did CC1(Cc2ccccc2OC(F)(F)F)C(=O)Nc2ccc(OC(F)(F)F)cc21 (configuration not stated) do in these assays?
TDP1 cell CPT: 21µM*; TDP1 cell noCPT: 21µM*

Results for Cc1c(C(=O)Nc2cccc(-c3nc4ccccc4s3)c2)oc2ccc(F)cc12 ?
miR-21 reporter: -1%; TDP1 cell CPT: inconclusive; TDP1 inh: -2%; TDP1 cell noCPT: 15µM*

How did O=C(Nc1cccc(-c2nc3ccccc3s2)c1)c1cc(-n2cnnc2)ccc1Cl do in these assays?
miR-21 reporter: -2%; TDP1 cell CPT: 9.2µM*; TDP1 inh: 7%; uPA generation: inconclusive; TDP1 cell noCPT: 16µM*

What do the screens show for `Cc1ccc2sc(-c3ccc(NC(=O)c4cc(-n5cnnc5)ccc4Cl)cc3)nc2c1`?
miR-21 reporter: -52%; TDP1 cell CPT: 13µM*; TDP1 inh: 7%; TDP1 cell noCPT: 9.2µM*

Results for CC1CCN(C(=O)C2CCN(S(=O)(=O)c3cccnc3)CC2)CC1 ?
miR-21 reporter: 3%; TDP1 cell CPT: -6%; TDP1 inh: 4%; uPA generation: 4%; TDP1 cell noCPT: -6%

Results for O=C(C1CCN(S(=O)(=O)c2cccnc2)CC1)N1CCN(c2ccccc2Cl)CC1 ?
miR-21 reporter: -10%; TDP1 cell CPT: inconclusive; TDP1 inh: 1%; uPA generation: -5%; TDP1 cell noCPT: 21µM*

Results for Cc1ccc(Cl)cc1N1CCN(C(=O)C2CCN(S(=O)(=O)c3cccnc3)CC2)CC1 ?
miR-21 reporter: 8%; TDP1 cell CPT: 2.9µM*; TDP1 inh: 6%; uPA generation: -12%; TDP1 cell noCPT: 4.6µM*

How did O=C(C1CCN(S(=O)(=O)c2cccnc2)CC1)N1CCCCC1 do in these assays?
miR-21 reporter: -2%; TDP1 cell CPT: -16%; TDP1 inh: 2%; uPA generation: -3%; TDP1 cell noCPT: -8%

What do the screens show for `O=C(C1CCN(S(=O)(=O)Cc2ccccc2)CC1)N1CCN(c2cccc(Cl)c2)CC1`?
miR-21 reporter: 2%; TDP1 cell CPT: -16%; TDP1 inh: 9%; TDP1 cell noCPT: inconclusive

How did Cc1ccc(Cl)cc1N1CCN(S(=O)(=O)c2cnc[nH]2)CC1 do in these assays?
miR-21 reporter: -12%; TDP1 cell CPT: 21µM*; TDP1 inh: 5%; uPA generation: 8%; TDP1 cell noCPT: inconclusive

How did Cc1ccc(Cl)cc1N1CCN(C(=O)C2CCN(S(=O)(=O)Cc3ccccc3)CC2)CC1 do in these assays?
miR-21 reporter: 20%; TDP1 cell CPT: 4.1µM*; TDP1 inh: 11%; TDP1 cell noCPT: 13µM*

Results for COc1ccccc1C(=O)N1CCN(C(=O)c2oc3ccc(C)cc3c2C)CC1 ?
miR-21 reporter: 0%; TDP1 cell CPT: inconclusive; TDP1 inh: 6%[56.1 µM]; uPA generation: -12%; TDP1 cell noCPT: inconclusive

3 entries picked at random from those above, as already listed:
Results for Cc1ccc(Cl)cc1N1CCN(C(=O)C2CCN(S(=O)(=O)c3cccnc3)CC2)CC1 ?
miR-21 reporter: 8%; TDP1 cell CPT: 2.9µM*; TDP1 inh: 6%; uPA generation: -12%; TDP1 cell noCPT: 4.6µM*

How did CC1(Cc2ccccc2OC(F)(F)F)C(=O)Nc2ccc(OC(F)(F)F)cc21 (configuration not stated) do in these assays?
TDP1 cell CPT: 21µM*; TDP1 cell noCPT: 21µM*

Results for CC1CCN(C(=O)C2CCN(S(=O)(=O)c3cccnc3)CC2)CC1 ?
miR-21 reporter: 3%; TDP1 cell CPT: -6%; TDP1 inh: 4%; uPA generation: 4%; TDP1 cell noCPT: -6%

More records.
What do the screens show for `CCCCC[n+]1ccn(C2=C([O-])c3ccccc3C(=O)/C2=N\S(=O)(=O)c2ccccc2)c1`?
miR-21 reporter: 1%; TDP1 cell CPT: 15µM*; TDP1 inh: 4%; uPA generation: -16%; TDP1 cell noCPT: 18µM*

What do the screens show for `CC(C)(C)c1cc[n+](C2=C([O-])c3ccccc3C(=O)/C2=N\S(=O)(=O)c2ccccc2)cc1`?
miR-21 reporter: 16%; TDP1 cell CPT: inconclusive; TDP1 inh: 4%; uPA generation: 2%; TDP1 cell noCPT: 23µM*

How did CC(C)c1ccc(S(=O)(=O)/N=C2\C=C(NS(=O)(=O)c3ccccc3)C(=O)c3ccccc32)cc1 do in these assays?
miR-21 reporter: -2%; TDP1 cell CPT: inconclusive; uPA generation: 5%; TDP1 cell noCPT: inconclusive

What do the screens show for `O=C1/C(=N\S(=O)(=O)c2cccs2)C([n+]2ccc(CCCc3ccccc3)cc2)=C([O-])c2ccccc21`?
miR-21 reporter: 25%; TDP1 cell CPT: -12%; TDP1 inh: 1%; uPA generation: -5%; TDP1 cell noCPT: -29%

How did CC(C)[n+]1ccn(C2=C([O-])c3ccccc3C(=O)/C2=N\S(=O)(=O)c2ccccc2)c1 do in these assays?
miR-21 reporter: 23%; TDP1 cell CPT: inconclusive; TDP1 inh: 8%; uPA generation: -8%; TDP1 cell noCPT: 18µM*

What do the screens show for `CCCCC[n+]1ccn(C2=C([O-])c3ccccc3C(=O)/C2=N\S(=O)(=O)c2ccc(Br)cc2)c1`?
miR-21 reporter: 2%; TDP1 cell CPT: 10µM*; TDP1 inh: 5%; uPA generation: inconclusive; TDP1 cell noCPT: inconclusive

How did CCCCC[n+]1ccn(-c2nc3ccccc3nc2[N-]S(=O)(=O)c2ccc(C)cc2)c1 do in these assays?
miR-21 reporter: -3%; TDP1 cell CPT: -2%; TDP1 inh: 0%; uPA generation: -5%; TDP1 cell noCPT: -5%

What do the screens show for `Cc1cccc(OCc2cc(=O)n3c(-c4ccccc4)csc3n2)c1C`?
miR-21 reporter: -33%; TDP1 cell CPT: -12%; TDP1 inh: 9%; TDP1 cell noCPT: -41%

What do the screens show for `O=S(=O)(NC1c2cccc3cccc(c23)C1Sc1ncccn1)c1ccccc1` (configuration not stated)?
miR-21 reporter: 0%; TDP1 cell CPT: inconclusive; TDP1 inh: 5%; uPA generation: 4%; TDP1 cell noCPT: 21µM*

What do the screens show for `O=C(NC(c1ccccc1)c1cnccn1)C1CCN(CCOc2ccc(Cl)cc2Cl)CC1` (configuration not stated)?
TDP1 cell CPT: 16µM*; TDP1 cell noCPT: 18µM*

How did Cn1cc(CN2CCC(C(=O)NC(c3ccc(-c4ccccc4)cc3)c3cnccn3)CC2)c2ccccc21 (configuration not stated) do in these assays?
TDP1 cell CPT: 13µM*; TDP1 cell noCPT: 16µM*

Results for O=C(NC(c1cccnc1)c1ccc2c(c1)OCO2)C1CCN(CCOc2ccc(Cl)cc2Cl)CC1 (configuration not stated) ?
TDP1 cell CPT: -45%; TDP1 cell noCPT: inconclusive
